Experimental data taken from ChEMBL document CHEMBL1649095, “A κ Opioid Pharmacophore Becomes a Spinally Selective κ-δ Agonist When Modified with a Basic Extender Arm” (2011).

What was measured:
Mus musculus [1] = assay: Antinociceptive activity in icv dosed HSD:ICR(CD1) mouse by tail flick test; type: functional; settings: strain HSD:ICR(CD1)
Mus musculus [2] = assay: Potency index, ratio of antinociceptive ED50 in icv dosed HSD:ICR(CD1) mouse to antinociceptive ED50 in intrathecally dosed HSD:ICR(CD1) mouse
Mus musculus [3] = assay: Antinociceptive activity in intrathecally dosed HSD:ICR(CD1) mouse by tail flick test; settings: strain HSD:ICR(CD1)

With `CN(C(=O)Cc1ccc(Cl)c(Cl)c1)[C@H](CN1CCCC1)c1ccccc1` the ED50 (Mus musculus [1]) was 0.58 nmol, the Ratio ED50 (Mus musculus [2]) was 1.05 and the ED50 (Mus musculus [3]) was 0.55 nmol.
